Earlier results, collected in patent US11325944B2 (priority 2017, dated 2022).

Protein sequences, listed by entry. Tags and fused reporters are not part of them.
UniProt P33535, whole entry: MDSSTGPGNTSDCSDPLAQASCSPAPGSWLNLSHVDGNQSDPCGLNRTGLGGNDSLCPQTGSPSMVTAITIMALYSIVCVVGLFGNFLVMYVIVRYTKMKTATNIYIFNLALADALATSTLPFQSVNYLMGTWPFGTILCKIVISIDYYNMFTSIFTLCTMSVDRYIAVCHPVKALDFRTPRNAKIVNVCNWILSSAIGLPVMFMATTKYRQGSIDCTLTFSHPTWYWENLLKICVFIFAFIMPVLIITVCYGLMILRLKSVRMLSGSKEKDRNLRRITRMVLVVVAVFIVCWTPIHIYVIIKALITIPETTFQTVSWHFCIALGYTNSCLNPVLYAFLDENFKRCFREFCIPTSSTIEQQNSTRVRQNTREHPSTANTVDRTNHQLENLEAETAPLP

Target: T1, MOR (Rattus norvegicus, UniProt P33535)
T1 construct: expressed in transfected cells; isolated membranes
Conditions: μ opioid receptor, CHO cell membranes; read-out: Kd of radioligand

Substance: [D-Ala^2, NMePhe^4, glyol]enkephalin [[^3H]-DAMGO]
- Kd: 0.49 nM
